{"source": "ChEMBL document CHEMBL1123143", "about": "“Analgesics of the 6,14-ethenomorphinan type. 6-deoxy-7 alpha-orvinols and 6-deoxy-8 alpha-orvinols” (1985)", "species_on_record": "Rattus norvegicus", "test": "Compound was evaluated for relative analgesic potency in Sprague-Dawley rat"}
{"smiles": "CN1CC[C@]23c4c5ccc(O)c4O[C@H]2[C@@H](O)C=C[C@H]3[C@H]1C5", "values": [{"measurement": "Relative analgesic potency", "value": 1}]}
